# According to PubChem BioAssay AID1006 (Sanford-Burnham Center for Chemical Genomics, 2008):
# Protein sequences, listed by entry. Tags and fused reporters are not part of them.
# UniProt P08659, whole entry, looked up: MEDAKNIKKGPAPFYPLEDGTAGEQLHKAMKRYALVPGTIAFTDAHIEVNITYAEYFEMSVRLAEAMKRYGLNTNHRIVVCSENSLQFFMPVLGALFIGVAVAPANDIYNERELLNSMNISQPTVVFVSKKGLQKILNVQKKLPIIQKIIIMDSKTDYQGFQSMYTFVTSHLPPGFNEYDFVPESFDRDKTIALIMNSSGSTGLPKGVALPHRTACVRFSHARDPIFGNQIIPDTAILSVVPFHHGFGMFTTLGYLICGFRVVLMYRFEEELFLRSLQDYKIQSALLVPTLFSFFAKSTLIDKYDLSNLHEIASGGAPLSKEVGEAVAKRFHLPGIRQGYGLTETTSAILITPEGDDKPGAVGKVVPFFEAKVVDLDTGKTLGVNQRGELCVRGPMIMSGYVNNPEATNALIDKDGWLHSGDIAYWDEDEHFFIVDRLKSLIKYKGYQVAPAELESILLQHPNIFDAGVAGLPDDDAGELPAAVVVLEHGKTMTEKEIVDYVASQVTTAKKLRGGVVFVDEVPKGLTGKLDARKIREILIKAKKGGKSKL
# This is a selection; strong and weak results do not stand in their true shares. Activity calls are given as the source filed them.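 How the source made its calls: active means inhibition above about 50% when tested at 10 µM (limit read from the data); inactive means the rest.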
# Biological target: Luciferin 4-monooxygenase (Photinus pyralis) (UniProt P08659)
# Experiment: inhibition of purified FLuc reporter enzyme – biochemical, luminescence, ATPLite, artefact control for luciferase-based inhibitor screens, primary screen (AID 1006)
# Conditions: ATPLite firefly luciferase biochemical luminescence, 10 min; at 10 µM; active compounds read high
row,Structure (SMILES),inhibition
1,CP(=O)(Nc1ccccn1)Oc1ccc(Cl)cc1 (configuration not stated),inactive: -2.9%
2,CP(=S)(Nn1cnnc1)Oc1ccccc1 (configuration not stated),inactive: -6.1%
3,CP(=O)(Nc1ccccc1Br)Oc1ccccc1 (configuration not stated),inactive: -3.4%
4,COc1ccccc1OP(C)(=O)Nc1ccccc1 (configuration not stated),inactive: -3.8%
5,CCOC(=O)c1ccc(NP(C)(=O)Oc2ccc(Cl)cc2)cc1 (configuration not stated),inactive: -2.6%
6,CP(=O)(OC12CC3CC(CC(C3)C1)C2)OC12CC3CC(CC(C3)C1)C2,inactive: -3.1%
7,COc1ccc(OP(C)(=O)Nc2ccc(Br)cc2)cc1 (configuration not stated),inactive: -3.1%
8,CCN(CC)CC(O)COC(=O)C(O)(c1ccccc1)C1CCCCC1 (configuration not stated),inactive: -8.5%
9,COc1ccccc1OP(C)(=O)Nc1c(C)n(C)n(-c2ccccc2)c1=O (configuration not stated),inactive: -2.1%
10,CCc1ccc(OP(C)(=O)Nc2cccnc2)cc1 (configuration not stated),inactive: -8.4%
11,CP(=O)(Oc1ccccc1)N1CCOC1=O (configuration not stated),inactive: -6%
12,COc1ccccc1OP(C)(=O)Nc1ccccc1Br (configuration not stated),inactive: -4.6%
13,CC(C)(C)c1ccc(OP(C)(=O)O)cc1,inactive: 0%
14,CP(=O)(Nc1ccc(Cl)cc1)Oc1ccc(F)cc1 (configuration not stated),inactive: -7.8%
15,CN(C)C(=O)c1c([N+](=O)[O-])cc([N+](=O)[O-])cc1[N+](=O)[O-],inactive: -1.6%
16,COc1ccc(OP(C)(=O)Nc2ccccn2)cc1 (configuration not stated),inactive: -4.8%
17,CN(C)CCOC(=O)C(O)(c1ccccc1)C1CCCC1 (configuration not stated),inactive: -6.8%
18,Cc1c(NP(C)(=O)Oc2ccc(C(C)C)cc2)c(=O)n(-c2ccccc2)n1C (configuration not stated),inactive: -2.8%
19,O=[N+]([O-])c1cc([N+](=O)[O-])c(Nc2ccccn2)c([N+](=O)[O-])c1,inactive: -2%
20,COc1ccccc1OP(C)(=O)Nc1ccc(C)cc1C (configuration not stated),inactive: -5.2%
21,CP(=O)(Nc1ccccn1)Oc1ccccc1 (configuration not stated),inactive: -3%

row,Structure (SMILES),inhibition
1,CCc1ccc(OP(C)(=O)O)cc1,inactive: -6.6%
2,Cc1cc(C)cc(OP(C)(=O)Nc2cccc(C(F)(F)F)c2)c1 (configuration not stated),inactive: -4.3%
3,COc1ccccc1OP(C)(=O)Nc1ccc(C)c(C)c1 (configuration not stated),inactive: -2.9%
4,COc1ccc(OP(C)(=O)Nc2ccccc2Br)cc1 (configuration not stated),inactive: -6.1%
5,Cc1nc2ccc3ccccc3c2o1.O=[N+]([O-])c1cc([N+](=O)[O-])c(O)c([N+](=O)[O-])c1,inactive: 3.9%
6,CP(=O)(Nc1ccc(Cl)cc1Cl)Oc1ccccc1 (configuration not stated),inactive: -3.7%
7,CP(=O)(OCCOc1ccccc1)OCCOc1ccccc1,inactive: -4.7%
8,CCOC(=O)c1ccc(NP(C)(=O)Oc2ccc(F)cc2)cc1 (configuration not stated),inactive: 3%
9,COc1ccc(OP(C)(=O)Nc2ccc(SC(F)(F)F)cc2)cc1 (configuration not stated),inactive: -7.4%
10,CCN(CC)CCCOC(=O)C(O)(c1ccccc1)C1CCCCC1 (configuration not stated),inactive: -7.6%
11,CP(=O)(Nc1ccccc1)Oc1ccc(F)cc1 (configuration not stated),inactive: -2.6%
12,CP(=O)(Nc1ccccc1F)Oc1ccccc1 (configuration not stated),inactive: -11.6%
13,CC(C)c1ccc(OP(C)(=O)Nc2ccc(SC(F)(F)F)cc2)cc1 (configuration not stated),inactive: -4.8%
14,O=C(OCCN1CCN(CCOCc2ccccc2)CC1)C(O)(c1ccccc1)c1ccccc1,inactive: -0.9%
15,CCOP(C)(=S)SCC(=O)NC(C)(CC)C(=O)O (configuration not stated),inactive: -2.5%
16,CP(=O)(Nc1ccc2c(c1)OCCO2)Oc1ccccc1 (configuration not stated),inactive: 0.2%
17,Cc1ccccc1NP(C)(=O)Nc1ccccc1C,inactive: -9.7%
18,COc1ccc(OP(C)(=O)Nc2cccc(Br)c2)cc1 (configuration not stated),inactive: -7.4%
19,CN(C)CCOC(=O)C(O)(c1ccccc1)C1CCCCC1 (configuration not stated),inactive: -1.6%
20,COc1ccc(NP(C)(=O)Oc2ccccc2OC)cc1 (configuration not stated),inactive: -2.2%
21,O=[N+]([O-])c1cc([N+](=O)[O-])c(NCC2CCS(=O)(=O)C2)c([N+](=O)[O-])c1 (configuration not stated),inactive: 3.8%
